{
  "sequences": {"note": "Sequences of proteins named here, by UniProt entry; tags and fusion partners are left off. A change or cut given only in a name is not applied to a line headed by its entry.", "UniProt P42866, whole entry": "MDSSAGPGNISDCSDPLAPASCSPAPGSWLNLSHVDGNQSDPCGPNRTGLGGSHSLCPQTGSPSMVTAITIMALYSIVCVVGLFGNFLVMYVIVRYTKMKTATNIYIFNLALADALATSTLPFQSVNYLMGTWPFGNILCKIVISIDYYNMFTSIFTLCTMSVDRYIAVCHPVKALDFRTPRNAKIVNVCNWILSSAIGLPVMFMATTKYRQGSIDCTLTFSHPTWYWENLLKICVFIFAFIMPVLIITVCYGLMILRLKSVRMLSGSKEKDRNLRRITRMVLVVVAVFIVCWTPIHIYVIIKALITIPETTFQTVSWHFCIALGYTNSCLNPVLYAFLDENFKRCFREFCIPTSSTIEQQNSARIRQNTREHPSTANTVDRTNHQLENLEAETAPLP", "UniProt P32300, whole entry": "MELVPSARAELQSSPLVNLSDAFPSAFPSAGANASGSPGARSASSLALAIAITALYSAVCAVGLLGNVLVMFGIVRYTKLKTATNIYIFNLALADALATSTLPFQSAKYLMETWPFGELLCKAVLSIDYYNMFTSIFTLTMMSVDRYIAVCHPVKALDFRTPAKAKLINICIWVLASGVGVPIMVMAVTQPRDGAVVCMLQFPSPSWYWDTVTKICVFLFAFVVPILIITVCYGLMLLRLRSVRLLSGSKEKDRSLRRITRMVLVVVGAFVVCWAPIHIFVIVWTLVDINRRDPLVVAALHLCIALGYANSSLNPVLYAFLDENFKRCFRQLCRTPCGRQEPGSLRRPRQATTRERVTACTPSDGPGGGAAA", "UniProt P34975": "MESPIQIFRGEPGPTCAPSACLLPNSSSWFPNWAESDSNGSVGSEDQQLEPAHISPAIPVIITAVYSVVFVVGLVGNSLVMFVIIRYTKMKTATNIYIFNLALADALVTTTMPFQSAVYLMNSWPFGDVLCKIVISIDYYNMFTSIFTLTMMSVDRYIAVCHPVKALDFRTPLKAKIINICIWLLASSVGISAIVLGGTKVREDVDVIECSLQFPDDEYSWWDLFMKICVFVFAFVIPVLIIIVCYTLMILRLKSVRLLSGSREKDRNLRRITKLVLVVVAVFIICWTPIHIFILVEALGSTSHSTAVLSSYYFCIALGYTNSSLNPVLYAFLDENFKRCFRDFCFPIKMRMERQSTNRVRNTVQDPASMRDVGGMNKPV", "UniProt P35372, whole entry": "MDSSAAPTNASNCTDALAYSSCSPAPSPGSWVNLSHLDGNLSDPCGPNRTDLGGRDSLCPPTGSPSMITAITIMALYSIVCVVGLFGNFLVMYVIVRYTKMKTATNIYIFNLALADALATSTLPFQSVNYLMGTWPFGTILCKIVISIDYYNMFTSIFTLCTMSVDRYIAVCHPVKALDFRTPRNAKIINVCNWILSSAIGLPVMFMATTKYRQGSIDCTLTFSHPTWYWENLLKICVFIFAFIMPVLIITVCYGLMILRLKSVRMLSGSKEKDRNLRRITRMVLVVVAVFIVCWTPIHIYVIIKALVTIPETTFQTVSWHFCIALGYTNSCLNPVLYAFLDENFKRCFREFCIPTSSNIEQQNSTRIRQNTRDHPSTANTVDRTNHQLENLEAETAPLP", "UniProt P41143, whole entry": "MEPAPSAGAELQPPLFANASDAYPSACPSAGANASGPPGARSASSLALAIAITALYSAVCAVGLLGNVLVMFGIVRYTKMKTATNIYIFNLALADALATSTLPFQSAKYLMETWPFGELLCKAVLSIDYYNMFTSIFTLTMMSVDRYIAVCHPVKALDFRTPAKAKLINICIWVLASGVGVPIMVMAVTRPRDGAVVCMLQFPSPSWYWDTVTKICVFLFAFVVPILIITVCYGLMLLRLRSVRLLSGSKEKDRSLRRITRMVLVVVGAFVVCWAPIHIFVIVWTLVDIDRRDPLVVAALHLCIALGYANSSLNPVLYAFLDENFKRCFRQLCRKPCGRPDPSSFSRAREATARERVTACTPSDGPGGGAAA"},
  "source": "patent US6855807B1",
  "about": "(priority 1999, dated 2005)",
  "key": {"[1]": {"biological_target": "T1, mu receptors (Mus musculus, UniProt P42866)", "T1 construct": "FLAG; expressed in transfected cells; host or cells: CHO", "assay": "Whole cell 3H-DAMGO binding, cells expressing mu receptors alone", "settings": "cells expressing only mu receptors"}, "[2]": {"biological_target": "T2, mu and delta receptors (Mus musculus, UniProt P32300+P42866)", "T2 construct": "FLAG; myc; expressed in transfected cells; host or cells: CHO", "assay": "Whole cell 3H-DAMGO binding, cells exogenously co-expressing mu and delta receptors", "settings": "10 nM TIPPΨ"}, "[3]": {"biological_target": "T3, kappa-delta heterodimer (UniProt P32300+P34975)", "T3 construct": "myc; FLAG; expressed in transfected cells; host or cells: HEK293", "format": "binding, rat kappa, mouse delta", "settings": "read-out: Kappa-Delta (Ki)"}, "[4]": {"biological_target": "T4, kappa opioid receptor (Rattus norvegicus, UniProt P34975)", "T4 construct": "expressed in transfected cells; host or cells: HEK293", "format": "binding", "settings": "read-out: Kappa (Ki)"}, "[5]": {"biological_target": "T5, SK-N-SH neuroblastoma cells that endogenously express mu and delta receptors (Homo sapiens, UniProt P35372+P41143)", "T5 construct": "SK-N-SH cells that endogenously express mu and delta receptors; endogenous in cells; host or cells: SK-N-SH neuroblastoma cells", "assay": "Whole cell 3H-DAMGO binding, SK-N-SH neuroblastoma cells", "settings": "10 nM TIPPΨ"}, "[6]": {"biological_target": "T6, mu-delta heterodimer (Mus musculus, UniProt P32300+P42866)", "T6 construct": "FLAG; myc; expressed in transfected cells", "assay": "Phosphorylated MAPK assay, mu-delta heterodimer", "format": "cell-based", "settings": "10 nM TIPPΨ"}},
  "data": [
    {"smiles": "N[C@@H](Cc1ccc(O)cc1)C(=O)N1Cc2ccccc2C[C@H]1CN[C@@H](Cc1ccccc1)C(=O)N[C@@H](Cc1ccccc1)C(=O)O", "note": "[TIPP Ψ]", "values": [
      {"measurement": "increase in 3H-DAMGO binding sites", "setting": "[1]", "result": "not seen"},
      {"measurement": "increase in the number of 3H-DAMGO binding sites", "setting": "[2]", "result": "about 50%"},
      {"measurement": "Ki", "setting": "[3]", "result": "> 1000", "unit": "nM"},
      {"measurement": "Ki", "setting": "[4]", "result": "> 1000", "unit": "nM"},
      {"measurement": "increase in the number of 3H-DAMGO binding sites", "setting": "[5]", "result": "about 50%"},
      {"measurement": "DAMGO-induced MAPK phosphorylation", "setting": "[6]", "result": "significant increase"}
    ]}
  ]
}
